From PubChem BioAssay AID463195 (Sanford-Burnham Center for Chemical Genomics, 2010)
This is a selection; strong and weak results do not stand in their true shares. Calls of active or inactive are those of the source.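 Rule for the calls: active = inhibition of 40% or more at the single tested concentration; inactive = the rest.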

Assay: wild-type TIM10 yeast growth inhibition – luminescence, uHTS, counter-screen for tim10-1 yeast inhibitor project, primary screen (AID 463195);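 note: wild-type TIM10 isogenic control strain grown at permissive 25 °C; 0% = DMSO yeast wells and 100% = minimal medium wells without yeast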
Details: S. cerevisiae TIM10 strain growth, BacTiter-Glo luminescence, 24 h; at 10 µM; stronger effect = higher value

Structure (SMILES)	inhibition
CN(C)C(=O)OCCc1n(C)cc[n+]1C	inactive: -8.71%
COc1ccc(C2=NCC(CBr)S2)cc1 (stereo not given)	inactive: 16.7%
Cc1ccc(NP(=O)(Oc2ccccc2)Oc2ccccc2)nc1	inactive: 2.96%
CCc1nc2c(n1)c1c(non1O)c1c2no[n+]1[O-]	inactive: -3.8%
O=[N+]([O-])c1cc([N+](=O)[O-])c(CCNc2ccccc2)c([N+](=O)[O-])c1	active: 56.8%
O=[N+]([O-])c1cccc2n[nH]nc12	inactive: -18.4%
CC(=O)N1C2C3N(C(C)=O)C1C1N(C(C)=O)C(C(N1C(C)=O)N3C(C)=O)N2C(C)=O	inactive: 10.4%
O=[N+]([O-])c1ncn(CCn2ncnc2[N+](=O)[O-])n1	inactive: 3.57%
CC(C)(C)C(=O)NC(Sc1ccncn1)C(Cl)(Cl)Cl (stereo not given)	inactive: -9.06%
O=[N+]([O-])c1cccc(NC2=NCC(CBr)S2)c1 (stereo not given)	inactive: 13.4%
O=C(Nc1cc([As](=O)(O)O)ccc1O)c1ccccc1	inactive: 2.93%
O=[As](O)(c1ccccc1)c1ccc(O)cc1	inactive: -11.7%
O=[N+]([O-])c1ncn(CCn2cnc([N+](=O)[O-])n2)n1	inactive: -14%
O=C(OC1CN2CCC1CC2)c1cccc(Cl)c1 (stereo not given)	inactive: -5.98%
C(Cc1nn[nH]n1)Cc1nn[nH]n1	inactive: -0.431%
Nc1ccc([As](=O)(O)c2ccc([N+](=O)[O-])cc2)cc1	inactive: -16.8%
O=P(Nc1ccccn1)(c1ccc(Br)cc1)c1ccc(Br)cc1	inactive: 8.75%
CN(C)C1(CNC(=O)c2ccc(Cl)c(S(N)(=O)=O)c2)CCCCC1	inactive: -18.8%
O=P(Nc1nc2ccccc2s1)(c1ccccc1)c1ccccc1	inactive: 10.1%
C[C@H]1OP(=O)(Oc2ccccc2)[C@H](O)[C@H](O)[C@H]1N=[N+]=[N-] (stereo not given in full)	inactive: 1.79%
CC(C)C(=O)NC(Sc1ccccc1)C(Cl)(Cl)Cl (stereo not given)	inactive: -21.9%
O=P(Nc1nccs1)(c1ccccc1)c1ccccc1	inactive: -0.666%
c1nnnn1CCn1cnnn1	inactive: -10.4%

Structure (SMILES)	inhibition
Cc1ccccc1CN(C)C(=O)COC(=O)C(O)(c1ccccc1)c1ccccc1	inactive: 1.6%
C[C@H]1OP(=O)(Oc2ccccc2)C[C@@H]2O[C@@H]21 (stereo not given in full)	inactive: -7.65%
C[C@@H]1C=CCP(=O)(Oc2ccccc2)O1 (stereo not given in full)	inactive: -6.08%
CC(=O)c1ccc(N2CC2c2ccncc2)cc1 (stereo not given)	inactive: -1.61%
CC(=O)Nc1ccc([As](=O)(O)O)c(O)c1	inactive: 6.71%
CC(=O)Nc1ccc(Oc2c([N+](=O)[O-])cc([N+](=O)[O-])cc2[N+](=O)[O-])cc1	inactive: 2.28%
O=P1(Nc2nc3ccc(Cl)cc3s2)COc2ccccc2O1 (stereo not given)	inactive: 4.34%
CCOc1ccc(C2=NCC(CBr)S2)cc1 (stereo not given)	inactive: 13.8%
CC(C)(C)C(=O)NC(Sc1ccccc1)C(Cl)(Cl)Cl (stereo not given)	inactive: 12.5%
O=C(OC1CN2CCC1CC2)c1ccccc1 (stereo not given)	inactive: -20.2%
CCC(=O)N1C2C3N(C(=O)CC)C1C1N(C(=O)CC)C(C(N1C(=O)CC)N3C(=O)CC)N2C(=O)CC	inactive: 3.12%
COC(=O)c1cc2c(s1)N=C(c1ccccc1)N(C)P2(=O)N1CCOCC1 (stereo not given)	inactive: 2.95%
CC(=O)NC(SC(=S)N(CC(C)C)CC(C)C)C(Cl)(Cl)Cl (stereo not given)	inactive: 32.4%
Cc1ccc(OP(=O)(Nc2ccccn2)Oc2ccc(C)cc2)cc1	inactive: -15%
CC(NC(=O)COC(=O)C(O)(c1ccccc1)c1ccccc1)c1ccccc1 (stereo not given)	inactive: 13.2%
Cc1ccccc1OP(=O)(Nc1ccccn1)Oc1ccccc1C	inactive: 30.4%
CN(C)C(=O)Oc1noc2ccccc12	inactive: 2.32%
c1ccc(-c2nn[nH]n2)c(-c2nn[nH]n2)c1	inactive: -6.83%
Cc1ccc(NP(=O)(Oc2cccc(C)c2)Oc2cccc(C)c2)nc1	inactive: -1.89%
CCOC(=O)NC(Sc1ccccc1)C(Cl)(Cl)Cl (stereo not given)	inactive: -7.94%
CCNC(=S)/N=C(\N)N[N+](=O)[O-]	inactive: -3.94%
O=C(NC1CCS(=O)(=O)C1)NP(=S)(Oc1ccccc1)Oc1ccccc1 (stereo not given)	inactive: 2.24%
